Experimental data as given in US20070071725A1, “Nitric oxide synthase gene transfer” (priority 2002, published 2007).
Only a part of the results on these compounds is given; other tests are left out.

Test system: isolated right atrium
Assay: [3H]norepinephrine release on field stimulation of the isolated right atrium
Parameters: species or system SD rat
Settings: superfusion 20 μM, naive hearts, n=6

sodium nitroprusside
NE release: 1.281±0.105 % of total
decrease of NE release: 21.4%
